Active and inactive are the calls of the source. The rule behind the calls is not given here.
Tests used:
Papain (Carica papaya) = biological target: T1, Papain (Carica papaya) (UniProt P00784); assay: Inhibition of papaya papain assessed as p-nitroaniline release at 2.5 uM after 1 hr pre-inhibition using Bz-L-Tyr-pNA as a substrate by calorimetric assay
T1 sequence (whole entry): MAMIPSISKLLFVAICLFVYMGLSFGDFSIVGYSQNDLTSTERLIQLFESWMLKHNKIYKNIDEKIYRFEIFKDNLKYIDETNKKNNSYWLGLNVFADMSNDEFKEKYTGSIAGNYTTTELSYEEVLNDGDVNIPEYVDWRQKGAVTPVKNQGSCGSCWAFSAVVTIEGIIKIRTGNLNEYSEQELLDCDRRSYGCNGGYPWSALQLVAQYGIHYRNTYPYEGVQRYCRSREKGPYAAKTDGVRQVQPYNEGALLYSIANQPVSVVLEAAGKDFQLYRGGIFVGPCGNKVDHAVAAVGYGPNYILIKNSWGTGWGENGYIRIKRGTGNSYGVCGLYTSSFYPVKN

[1] = Inhibition of chymotrypsin assessed as p-nitroaniline release after 30 mins pre-incubated with compound for 1 hr before addition of Bz-L-Tyr-pNA as a substrate by calorimetric assay
Method in brief: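 Chymotrypsin (commercial, used as received) pre-incubated 1 h with inhibitor in DMSO in sodium phosphate 0.05 M pH 7.0; aliquot then added to Bz-L-Tyr-pNA. Final: enzyme 1.0 µM, substrate 0.25 mM; DMSO controls. p-Nitroaniline release read at 405 nm for 30 min at rt to give residual activity. Triplicate or quadruplicate.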

Compound: CC(C)[C@@H](CS(=O)(=O)F)NC(=O)OCc1ccccc1
- Activity (Papain (Carica papaya)): Active
- Activity [1]: Active
